Measured values reported in patent US11793797B2, “Uses of a lysyl oxidase-like 2 inhibitor” (PHARMAKEA, INC., priority 2016, dated 2023).

System: bleomycin-induced lung fibrosis
Assay: Mouse oropharyngeal bleomycin model of lung fibrosis
Assay type: in vivo
Details: tested form: HCl

NCc1cc(Oc2cccc(C(=O)N3C[C@@H](O)[C@H](F)C3)c2)nc(C(F)(F)F)c1 (relative stereo)
minimal dose to achieve maximal anti-fibrotic efficacy (prophylactic 14-day dose response, oral QD): 30 mg/kg
Ashcroft score (lung fibrosis), dose frequency (prophylactic, oral 60 mg/kg QD, Q2D or Q3D, Day 14): reduced lung fibrosis
Ashcroft score (lung fibrosis), dose response (prophylactic, oral 3, 10, 30 or 60 mg/kg/day, lungs harvested Day 14): reduced fibrosis in a dose-related manner
